Protein sequences, listed by entry. Tags and fused reporters are not part of them. Residues count along the entry.
UniProt P22303, 32-614 limits assumed: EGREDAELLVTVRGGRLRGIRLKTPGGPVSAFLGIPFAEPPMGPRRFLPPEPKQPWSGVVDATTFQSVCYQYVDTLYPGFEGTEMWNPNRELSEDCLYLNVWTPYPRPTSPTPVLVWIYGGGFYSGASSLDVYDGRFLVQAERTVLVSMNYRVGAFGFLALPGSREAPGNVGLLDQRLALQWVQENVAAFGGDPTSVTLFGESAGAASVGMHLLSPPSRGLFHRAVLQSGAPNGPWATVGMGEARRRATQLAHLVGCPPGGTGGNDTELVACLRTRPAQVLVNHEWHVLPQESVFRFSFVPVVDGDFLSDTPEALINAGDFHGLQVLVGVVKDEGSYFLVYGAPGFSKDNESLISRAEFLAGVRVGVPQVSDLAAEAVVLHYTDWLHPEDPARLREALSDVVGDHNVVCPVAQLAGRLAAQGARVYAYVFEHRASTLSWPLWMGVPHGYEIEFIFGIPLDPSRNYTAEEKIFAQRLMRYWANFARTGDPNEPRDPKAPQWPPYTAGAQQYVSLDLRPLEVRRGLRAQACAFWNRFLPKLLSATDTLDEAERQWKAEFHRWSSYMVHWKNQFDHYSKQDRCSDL

In US7070773B2, “Chemical and/or biological decontamination system” (dated 2006):

Legend:
[1] = tested on: Bacillus globigii spores; conditions: tryptic soy broth
[2] = biological target: acetylcholinesterase (AChE) (Homo sapiens, UniProt P22303); test: Ellman's acetylcholinesterase assay, impact of test materials on AChE; conditions: for direct impact on the Ellman's assay: preliminary studies
[3] = tested on: Bacillus globigii vegetative cells; conditions: tryptic soy broth
[4] = DFP testing, Ellman's assay; conditions: initial studies
[5] = tested on: bacteria; test: Exposure of bacteria to varying levels of BAC alone
[6] = concentration not printed, listed as Benzalkonium chloride

Compound: tetrakishydroxymethyl phosphonium sulfate
- RESULT (Spores) ([1]; 7500 ppm): No spore germination observed
- RESULT (Spores) ([1]; concentration not printed): no spore germination
- interference with the Ellman's assay ([2]; blended with other biocides): did not interfere with the Ellman's assay
- direct impact on the Ellman's assay [2]: reacts directly with the colorimetric reagent
- RESULT (Cells) ([3]; 7500 ppm): Bacteriocidal
- RESULT (Cells) ([3]; concentration not printed): bacteriocidal effect on cells
- inhibition of the chemical agent DFP [4]: do not inhibit the chemical agent DFP

Compound: O=C(O)CN(CCN(CC(=O)O)CC(=O)O)CC(=O)O
- RESULT (Spores) ([1]; 270 mM): No change observed
- direct impact on the Ellman's assay [2]: do not directly impact the assay
- RESULT (Cells) ([3]; 270 mM): No effect observed

Compound: benzalkonium chloride
- RESULT (Spores) ([1]; concentration not printed): no effect on spore germination
- RESULT (Spores) [1, 6]: No change observed
- activity against bacteria ([5]; high levels): bacteriocidal activity
- activity against bacteria ([5]; lower levels): bacteriostatic activity
- RESULT (Cells) ([3]; concentration not printed): highly bacteriocidal
- RESULT (Cells) [3, 6]: Bacteriocidal to 10^8
- inhibition of the chemical agent DFP [4]: do not inhibit the chemical agent DFP

Compound: Oc1cc(Cl)ccc1Oc1ccc(Cl)cc1Cl
- RESULT (Spores) ([1]; 5000 ppm): No spore germination observed
- RESULT (Spores) ([1]; concentration not printed): no spore germination
- direct impact on the Ellman's assay [2]: do not directly impact the assay
- RESULT (Cells) ([3]; 5000 ppm): Bacteriocidal
- RESULT (Cells) ([3]; concentration not printed): bacteriocidal effect on cells
- inhibition of the chemical agent DFP [4]: do not inhibit the chemical agent DFP

Compound: [H]/N=C(/N)N[C@H]1[C@H](O)[C@@H](O)[C@H](O[C@@H]2O[C@@H](C)[C@](O)(C=O)[C@H]2O[C@@H]2O[C@@H](CO)[C@H](O)[C@@H](O)[C@@H]2NC)[C@@H](N/C(N)=N\[H])[C@@H]1O
- RESULT (Spores) ([1]; concentration not printed): Reduced spore germination
- RESULT (Cells) ([3]; concentration not printed): No effect observed

Compound: urea
- RESULT (Spores) ([1]; 1.7M): Slight growth rate reduction
- direct impact on the Ellman's assay [2]: do not directly impact the assay
- RESULT (Cells) ([3]; 1.7M): No effect observed

Like-named read-outs stand apart in the source and are kept apart here.
